From ChEMBL document CHEMBL1133467, “Identification of novel inhibitors of urokinase via NMR-based screening” (J Med Chem, 2000)

Biological target: Urokinase-type plasminogen activator (Homo sapiens, UniProt P00749)
Assay: Inhibitory activity against Urokinase-type plasminogen activator

Question: With `Nc1nc2cc(O)ccc2[nH]1` as the compound, how does the pIC50 read?
Answer: The pIC50 was 5.00.

pIC50: −log10 of the molar value.
